The numbers were not newly measured in patent US20100280031A1, “LIPID FORMULATION OF APOPTOSIS PROMOTER” (priority 2009, published 2010), which cites them from elsewhere.

The chains behind the UniProt entries cited, without tags or fusion partners.
UniProt P10415, whole entry: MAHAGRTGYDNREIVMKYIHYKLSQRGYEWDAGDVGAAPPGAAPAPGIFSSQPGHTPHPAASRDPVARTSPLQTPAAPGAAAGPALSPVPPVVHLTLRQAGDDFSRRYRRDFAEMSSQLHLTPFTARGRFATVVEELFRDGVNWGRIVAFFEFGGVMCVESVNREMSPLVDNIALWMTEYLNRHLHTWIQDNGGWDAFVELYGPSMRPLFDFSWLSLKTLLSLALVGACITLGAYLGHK

The data set addresses Bcl-2 (Homo sapiens, UniProt P10415). Conditions: read-out: binding affinity; cited from earlier work.

SMILES strings stand for the structures.

`CC1(C)CCC(c2ccc(Cl)cc2)=C(CN2CCN(c3ccc(C(=O)NS(=O)(=O)c4ccc(N[C@H](CCN5CCOCC5)CSc5ccccc5)c(S(=O)(=O)C(F)(F)F)c4)cc3)CC2)C1` [ABT-263]: the Ki was below 1 nM.
